Assay results: patent publication US4018930A, “Substituted indolobenzazepines” (Endo Laboratories, Inc., priority 1975, dated 1977)
Structures can show the parent of a compound that is named as a salt.

Key:
mice [1] = test: Ptosis (Pto.), primary rodent screen; type: in vivo, mouse; conditions: po, read-out: Pto. ED50 (ptosis)
mice [2] = test: Decreased Locomotor Activity (L.M.A.), primary rodent screen; type: in vivo, mouse; conditions: po, read-out: L.M.A. ED50 (decreased locomotor activity)
mice [3] = test: Phenylquinone Writhing (P.Q.W.) test, analgesic activity; type: in vivo, mouse; conditions: 0.5 h, po, read-out: P.Q.W. ED50 (analgesic ED50)
Protocol: The analgesic activity of the compounds of the present invention is conveniently determined in a phenylquinone writhing test, as described below:
Phenylquinone Writhing (P.Q.W.):
results given in: mg/kg po/mouse
Groups of at least 10 mice are given phenyl-p-benzoquinone 2.5 mg/kg intraperitoneally 30 minutes after oral administration of graded doses of the test substance. Two or more dose levels are used for each compound. For scoring purposes, a "writhe" is defined as stretching, twisting of a hindleg inward, or contraction of the abdomen. The total number of writhes for each animal, treated and control animals side-by-side, are counted over a 30-minute time interval. […] The P.Q.W. test is widely used as an indicator of potential analgesic activity in man, especially for non-narcotic substances.

Solubility in water = type: physicochemical
[4] = mouse, oral dose producing score of at least -1
[5] = mouse, phenyl-p-benzoquinone 2.5 mg/kg ip 30 min after dose, 30-minute count

Structure (SMILES) | LD50 (in vivo) | ED50 (mice [1]; mouse, passive ptosis) | ED50 (mice [2]; [4]) | ED50 (mice [3]; [5]) | solubility in water (Solubility in water) | ED50 (mice [1]; Mus musculus) | ED50 (mice [2]; Mus musculus) | ED50 (mice [3]; Mus musculus)
CC(Cl)=CCN1CC[C@@H]2[C@@H](C1)c1cccc3c1N2c1ccccc1CC3 (racemic) [Example 1, (±)-trans-3-(3-chloro-2-butenyl)-1,2,3,4,4a,8,9,14a-octahydropyrido[4',3':2,3]indolo[1,7-ab][1]benzazepine] | > 300 mg/kg | > 300 mg/kg | > 300 mg/kg | 86 mg/kg |  |  |  | 
CC(=O)CCN1CC[C@@H]2[C@@H](C1)c1cccc3c1N2c1ccccc1CC3 (racemic) [Example 6, (±)-4-(trans-1,2,3,4,4a,8,9,14a-octahydropyrido[4',3':2,3]indolo[1,7-ab][1]benzazepin-3-yl)-2-butanone] | > 324 mg/kg | 7.1 mg/kg | 8 mg/kg | 1.25 mg/kg |  |  |  | 
CC(=O)CCCN1CC[C@@H]2[C@@H](C1)c1cccc3c1N2c1ccccc1CC3 (racemic) [Example 7, (±)-5-(trans-1,2,3,4,4a,8,9,14a-octahydropyrido[4',3':2,3]indolo[1,7-ab][1]benzazepin-3-yl)-2-pentanone] | > 324 mg/kg | 1.3 mg/kg | 2.6 mg/kg | 1.4 mg/kg |  |  |  | 
O=C(CCN1CC[C@@H]2[C@@H](C1)c1cccc3c1N2c1ccccc1CC3)c1ccccc1 (racemic) [Example 8, (±)-3-(trans-1,2,3,4,4a,8,9,14a-octahydropyrido[4',3':2,3]indolo[1,7-ab][1]benzazepin-3-yl)propiophenone] | > 324 mg/kg | 20 mg/kg | 200 mg/kg | 26 mg/kg |  |  |  | 
CC(=O)CN1CC[C@@H]2[C@@H](C1)c1cccc3c1N2c1ccccc1CC3 (relative stereo) [Example 3, (±)-trans-3-acetonyl-1,2,3,4,4a,8,9,14a-octahydropyrido[4',3':2,3]indolo[1,7-ab][1]benzazepipine] | > 300 mg/kg | 4 mg/kg | 2 mg/kg | 2 mg/kg |  |  |  | 
c1ccc2c(c1)CCc1cccc3c4c(n-2c13)CCNC4 [1,2,3,8,9-hexahydropyrido[4',3':2,3]=indolo[1,7ab][1]benzazepine hydrochloride] |  |  |  |  | only very slightly soluble in water |  |  | 
CN(C)CCCN1c2ccccc2Sc2ccc(Cl)cc21 [chlorpromazine (HCl), chlorpromazine, reference compound] |  |  |  |  |  | 6 mg/kg | 5 mg/kg | 
COc1ccc2c3c1O[C@H]1[C@@H](O)C=C[C@H]4[C@@H](C2)N(C)CC[C@@]341 [codeine phosphate, reference compound] |  |  |  |  |  |  |  | 19 mg/kg
